Data on one compound can be found in patent US20150261911A1, “CRYSTAL STRUCTURE” (Heptares Therapeutics Limited, priority 2014, published 2015).

The target in assay [1] is CRF1R Y327A(6.53) (Homo sapiens, UniProt P34998, Y327A). The assay can be described thus: Solubilised whole cell ligand binding, alanine mutagenesis. The note with it: mutation Y327A(6.53); percentage of wild-type CRF1R total binding, normalized for expression (eGFP); tested as the radiolabelled form. As to the method:
(§1) HEK293T cells transiently transfected with CRF1R constructs were incubated in buffer (50mMTris-HCl pH 7.5, 150mMNaCl, EDTA-free protease inhibitors) with 30 nM [^3H]CP-376395, and 120 nM cold CP-376395 (Tocris) for 18 hours at room temperature. Reactions were transferred to ice and all subsequent steps performed at 4° C. Cells were solubilized in 1% (w/v) n-dodecyl-β-D-maltopyranoside (DDM, Affymetrix) for 1 hour and crude lysates cleared by centrifugation at 16.000×g for 15 minutes. Thermostability of the receptor was measured by incubation at varying temperatures for 30 minutes followed by separation of excess and unbound radioligand by gel filtration. Levels of ligand-bound receptor were then determined using a liquid scintillation counter.
(§2) For saturation binding experiments, membranes isolated from HEK293T cells transiently expressing wild-type CRF1R (15 μg/well), CRF1R StaR (6 μg/well), CRF1R StaR with T4L fusion (20 μg/well), and CRF1R-#105 (20 μg/well) were incubated in buffer (50mMTris-HCl pH 7.5, 150 mM NaCl, 0.1% (w/v) PEI, EDTA-free protease inhibitors) with [^3H]CP-376395 (0-60 nM) in the presence or absence of 30 uM cold CP-376395 in a final volume of 500 μl. Final DMSO concentration in each reaction was 5% (v/v). Membranes were incubated for 18 hours at room temperature before being terminated by rapid filtration through 96-well GF/C UniFilter plates pre-soaked in 0.3% (w/v) PEI, followed by washing with PBS with 0.15% (w/v) CHAPS. Plates were dried, 50 μl Ultima Gold-F added per well and bound ligand measured using a Packard Microbeta counter. Data were analyzed using a global fitted one-site binding hyperbola in GraphPad Prism v5 to generate Kd. For solubilized whole cell ligand binding experiments, HEK293T cells transiently expressing eGFP-tagged wild-type CRF1R or single point mutants were treated as described above for thermostability experiments, without the 30 minute heating step. Specific binding was determined by subtracting untransfected controls. Expression of each construct was quantified by eGFP fluorescence of whole cells measured at Ex/Em of 488/520 nm.

For assay [2], the target named is CRF1R V279A(5.46) (Homo sapiens, UniProt P34998, V279A). The assay is described as above. The note with it: mutation V279A(5.46); percentage of wild-type CRF1R total binding, normalized for expression (eGFP); tested as the radiolabelled form. As to the method: as §1, §2
The target of assay [3] is CRF1R L280A(5.47) (Homo sapiens, UniProt P34998, L280A). The assay is described as above. The note with it: mutation L280A(5.47); percentage of wild-type CRF1R total binding, normalized for expression (eGFP); tested as the radiolabelled form. As to the method:
as §1, §2

For assay [4], the target named is CRF1R Q355A(7.49) (Homo sapiens, UniProt P34998, Q355A). The assay is described as above. The note with it: mutation Q355A(7.49); percentage of wild-type CRF1R total binding, normalized for expression (eGFP); tested as the radiolabelled form. As to the method: as §1, §2
Assay [5] addresses CRF1R N283A(5.50) (Homo sapiens, UniProt P34998, N283A). Described as above. The note with it: mutation N283A(5.50); percentage of wild-type CRF1R total binding, normalized for expression (eGFP); tested as the radiolabelled form. As to the method:
as §1, §2

Assay [6] concerns the target CRF1R L320A(6.46) (Homo sapiens, UniProt P34998, L320A). The assay is described as above. The note with it: mutation L320A(6.46); percentage of wild-type CRF1R total binding, normalized for expression (eGFP); tested as the radiolabelled form. As to the method: as §1, §2
In assay [7] the target is CRF1R F284A(5.51) (Homo sapiens, UniProt P34998, F284A). The assay is described as above. The note with it: mutation F284A(5.51); percentage of wild-type CRF1R total binding, normalized for expression (eGFP); tested as the radiolabelled form. As to the method:
as §1, §2

For assay [8], the target named is CRF1R L323A(6.49) (Homo sapiens, UniProt P34998, L323A). Described as above. The note with it: mutation L323A(6.49); percentage of wild-type CRF1R total binding, normalized for expression (eGFP); tested as the radiolabelled form. As to the method: as §1, §2
The target in assay [9] is CRF1R L287A(5.54) (Homo sapiens, UniProt P34998, L287A). The description is as above. Particulars: mutation L287A(5.54); percentage of wild-type CRF1R total binding, normalized for expression (eGFP); tested as the radiolabelled form. As to the method: as §1, §2
Assay [10] addresses CRF1R M206A(3.47) (Homo sapiens, UniProt P34998, M206A). The assay is described as above. The note with it: mutation M206A(3.47); percentage of wild-type CRF1R total binding, normalized for expression (eGFP); tested as the radiolabelled form. As to the method: as §1, §2
In assay [11] the target is CRF1R G324A(6.50) (Homo sapiens, UniProt P34998, G324A). The description is as above. Particulars: mutation G324A(6.50); percentage of wild-type CRF1R total binding, normalized for expression (eGFP); tested as the radiolabelled form. As to the method: as §1, §2
Assay [12] has as its target CRF1R F203A(3.44) (Homo sapiens, UniProt P34998, F203A). The assay is described as above. The note with it: mutation F203A(3.44); percentage of wild-type CRF1R total binding, normalized for expression (eGFP); tested as the radiolabelled form. As to the method: as §1, §2
The target in assay [13] is CRF1R L319A(6.45) (Homo sapiens, UniProt P34998, L319A). Described as above. Particulars: mutation L319A(6.45); percentage of wild-type CRF1R total binding, normalized for expression (eGFP); tested as the radiolabelled form. As to the method:
as §1, §2

For assay [14], the target named is CRF1R T316A(6.42) (Homo sapiens, UniProt P34998, T316A). Described as above. The note with it: mutation T316A(6.42); percentage of wild-type CRF1R total binding, normalized for expression (eGFP); tested as the radiolabelled form. As to the method:
as §1, §2

The target of assay [15] is CRF1R I290A(5.57) (Homo sapiens, UniProt P34998, I290A). The description is as above. Particulars: mutation I290A(5.57); percentage of wild-type CRF1R total binding, normalized for expression (eGFP); tested as the radiolabelled form. As to the method: as §1, §2
The target of assay [16] is CRF1R StaR with T4L fusion (Homo sapiens, UniProt P34998, C54T/F260A/F330A/I277A/K228A/L144A/S160A/S222L/S349A/V120A/W156A/Y309A/Y363A). The assay can be described thus: Saturation binding of [3H]CP-376395 to HEK293T membranes. Particulars: read-out: Mean Kd [^3H]CP-376395, CRF1R StaR T4, mean of three experiments, standard deviation in parentheses, tested as the radiolabelled form. As to the method:
(§3) HEK293T cells were maintained in culture in DMEM supplemented with 10% (v/v) fetal bovine serum (FBS, Sigma-Aldrich) and passaged twice weekly. Cells were transfected with CRF1R constructs using GeneJuice (Merck Millipore) according to manufacturer's instructions and harvested after 48 hours using PBS supplemented with EDTA-free protease inhibitors (Roche). Membranes for use in radioligand binding assays were prepared as previously described (Robertson et al, 2011).
as §2

For assay [17], the system named is CRF1R-#105. The description is as above. Particulars: read-out: Mean Kd [^3H]CP-376395, mean of three experiments, standard deviation in parentheses, tested as the radiolabelled form. As to the method:
as §3, §2

Assay [18] deals with CRF1R StaR (Homo sapiens, UniProt P34998, F260A/F330A/I277A/K228A/L144A/S160A/S222A/S349A/V120A/W156A/Y309A/Y363A). The description is as above. Particulars: read-out: Mean Kd [^3H]CP-376395, mean of three experiments, standard deviation in parentheses, tested as the radiolabelled form. As to the method:
as §3, §2

Assay [19] has as its target wild-type CRF1R (Homo sapiens, UniProt P34998). The description is as above. Particulars: read-out: Mean Kd [^3H]CP-376395, mean of three experiments, standard deviation in parentheses, tested as the radiolabelled form. As to the method: as §3, §2

By Kd is commonly meant the concentration at which binding is half-saturated. In the case of `CCC(CC)Nc1cc(C)nc(Oc2c(C)cc(C)cc2C)c1C` [CP-376395], the “Normalised % wt [^3H]CP-376395 binding” value stood at 8% in [1]; 18% in assay [2]; 1% in [3]; 101% in assay [4]; 0% in [5]; 33% in assay [6]. The “Normalised % wt [^3H]CP-376395 binding” value in assay [7] is 60%; in assay [8], 26%; in assay [9], 5%; in assay [10], 8%; in [11] it was 41%; in assay [12], 1%. Further, the “Normalised % wt [^3H]CP-376395 binding” value in [13] was determined as 120%; in [14] it was 47%; in [15], 5%. Besides, the Kd in [16] is 6.7 nM; in assay [17], 5 nM; in [18], 1.5 nM; in assay [19] it was 7.5 nM.
